Experimental data as given in patent US20230089582A1, “1,2,4-TRIAZINE-3,5-DIONE COMPOUND, PREPARATION METHOD THEREFOR, AND APPLICATION THEREOF” (KPC PHARMACEUTICALS, INC, priority 2019, published 2023).

Protein sequences, listed by entry. Tags and fused reporters are not part of them. Residues count along the entry.
UniProt P10827, 163-410 isoform P10827-2 limits assumed: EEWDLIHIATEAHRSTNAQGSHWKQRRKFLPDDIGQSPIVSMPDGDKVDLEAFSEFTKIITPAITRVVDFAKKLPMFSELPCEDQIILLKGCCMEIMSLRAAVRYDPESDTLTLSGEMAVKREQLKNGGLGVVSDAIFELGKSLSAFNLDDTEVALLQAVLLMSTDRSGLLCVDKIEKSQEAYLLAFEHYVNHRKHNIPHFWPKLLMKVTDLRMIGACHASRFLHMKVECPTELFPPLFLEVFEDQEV

Biological target: THRα (Homo sapiens, UniProt P10827)
Assay: THRα binding assay (TR-FRET co-activating peptide recruitment)
Assay type: biochemical
Conditions: THRα instead of THRβ, agonistic effect

- Emax: 111%
Structure (SMILES): CC(C)c1cc(Oc2c(Cl)cc(-n3nc(C#N)c(=O)[nH]c3=O)cc2Cl)n[nH]c1=O [Control compound 2, MGL-3196, reference compound]
